By UniProt entry, the sequences of proteins in these tests, tags left out. Residues count along the entry.
UniProt P43304, 43-727 limits assumed: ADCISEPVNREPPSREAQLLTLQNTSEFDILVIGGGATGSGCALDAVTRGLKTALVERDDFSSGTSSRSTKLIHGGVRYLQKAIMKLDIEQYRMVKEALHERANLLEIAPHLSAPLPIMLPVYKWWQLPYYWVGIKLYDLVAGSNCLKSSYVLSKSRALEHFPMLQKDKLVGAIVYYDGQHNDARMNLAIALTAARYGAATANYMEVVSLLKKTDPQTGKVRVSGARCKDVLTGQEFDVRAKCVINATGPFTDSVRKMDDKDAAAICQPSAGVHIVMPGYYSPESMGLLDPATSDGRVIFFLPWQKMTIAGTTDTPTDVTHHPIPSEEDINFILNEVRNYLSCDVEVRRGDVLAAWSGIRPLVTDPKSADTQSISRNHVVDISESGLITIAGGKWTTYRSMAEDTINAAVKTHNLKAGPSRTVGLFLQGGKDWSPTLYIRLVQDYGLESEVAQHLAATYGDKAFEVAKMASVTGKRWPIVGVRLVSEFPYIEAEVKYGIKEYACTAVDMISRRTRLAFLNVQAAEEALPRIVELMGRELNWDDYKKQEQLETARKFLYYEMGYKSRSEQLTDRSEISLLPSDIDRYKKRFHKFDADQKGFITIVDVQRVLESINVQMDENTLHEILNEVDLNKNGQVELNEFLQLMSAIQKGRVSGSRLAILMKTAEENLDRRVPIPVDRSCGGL

In publication PMC3942692, “Mitochondrial FAD-linked Glycerol-3-phosphate Dehydrogenase: A Target for Cancer Therapeutics” (Pharmaceuticals, 2014):

Biological target: GPD2 (mitochondrial glycerol-3-phosphate dehydrogenase) (Homo sapiens, UniProt P43304)
Experiment: GPD2 oxidoreductase, resazurin reduction fluorescence
Settings: 30 mM glycerol-3-phosphate
Description: GPD2 oxidoreductase, resazurin reduction fluorescence on GPD2 (mitochondrial glycerol-3-phosphate dehydrogenase) | six GPD2 activity inhibitors selected for follow-up analysis are shown

Question: How did the EC50 turn out when O=[N+]([O-])c1ccc(Oc2ccccc2O)c2c1no[n+]2[O-] was run?
Answer: The EC50 was 13.3 µM.

Question: With O=Cc1cc(N=Nc2cccc(Cl)c2)ccc1O as the compound, how does the EC50 read?
Answer: Its EC50 is 8.6 µM.
